Source: PMC3285107 (ACS medicinal chemistry letters, 2012)

Test system: RGS4
Experiment: FCPIA: inhibition of Gαo binding to RGS4
How it was run: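 Primary FCPIA screen for inhibition of Gαo binding to RGS4, run in parallel against RGS8, its closest sequence relative, to assess selectivity. IC50 values are averages of two independent experiments. Calculated ΔpIC50 mean error: 0.2 for RGS4, 0.14 for RGS8.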

## CCCCn1c(=O)sn(CC)c1=O [11b]
  selectivity for RGS4 versus RGS8: ~6000 fold
